A short description of the series: Particle size distribution of ulotaront HCl API lots (laser diffraction). In kind it is physicochemical. Particulars: for Dv(10) / Dv(50) / Dv(90): PSD range study lots, average of three individual measurements; for SPAN: (D90 − D10) divided by D50; for Particle Size Distribution D10 / Particle Size Distribution D50 / Particle Size Distribution D90: ulotaront HCl API lots, Table 1. On the procedure:
The particle size was measured before and after milling using laser diffraction.

`CNC[C@@H]1OCCc2ccsc21.Cl` [API Lot 1]: the “Dv(10)” value is listed as 22 μm, the “Dv(50)” value is recorded as 98 μm and the “Dv(90)” value is 252 μm.

As to `CNC[C@@H]1OCCc2ccsc21.Cl` [API Lot 2], the “Dv(10)” value was 14 μm, the “Dv(50)” value is given as 67 μm and the “Dv(90)” value is given as 218 μm.

For the compound `CNC[C@@H]1OCCc2ccsc21.Cl` [API Lot 3], the “Dv(10)” value is 8 μm, the “Dv(50)” value amounted to 37 μm and the “Dv(90)” value worked out at 120 μm.

As for `CNC[C@@H]1OCCc2ccsc21.Cl` [API-1], the SPAN is 1.28, the “Particle Size Distribution D10” value came to 36 μm, the “Particle Size Distribution D50” value was determined as 68 μm and the “Particle Size Distribution D90” value was 123 μm.

Turning to `CNC[C@@H]1OCCc2ccsc21.Cl` [API-2], the SPAN came out at 1.79, the “Particle Size Distribution D10” value is reported as 69 μm, the “Particle Size Distribution D50” value amounted to 149 μm and the “Particle Size Distribution D90” value was found to be 335 μm.

Take `CNC[C@@H]1OCCc2ccsc21.Cl` [API-3]: the SPAN was determined as 1.96, the “Particle Size Distribution D10” value came to 69 μm, the “Particle Size Distribution D50” value is listed as 157 μm and the “Particle Size Distribution D90” value stood at 376 μm.

As for `CNC[C@@H]1OCCc2ccsc21.Cl` [API-4], the SPAN turned out to be 1.63, the “Particle Size Distribution D10” value is listed as 74 μm, the “Particle Size Distribution D50” value turned out to be 189 μm and the “Particle Size Distribution D90” value is on record as 382 μm.

As to `CNC[C@@H]1OCCc2ccsc21.Cl` [API-5], the SPAN worked out at 0.82, the “Particle Size Distribution D10” value turned out to be 72 μm, the “Particle Size Distribution D50” value worked out at 108 μm and the “Particle Size Distribution D90” value stood at 161 μm.

As to `CNC[C@@H]1OCCc2ccsc21.Cl` [API-6], the SPAN amounted to 1.43, the “Particle Size Distribution D10” value was found to be 27 μm, the “Particle Size Distribution D50” value is 65 μm and the “Particle Size Distribution D90” value was 120 μm.

For `CNC[C@@H]1OCCc2ccsc21.Cl` [API-7], the SPAN came out at 1.91, the “Particle Size Distribution D10” value is 14 μm, the “Particle Size Distribution D50” value amounted to 65 μm and the “Particle Size Distribution D90” value stood at 138 μm.

As to `CNC[C@@H]1OCCc2ccsc21.Cl` [API-8], the SPAN came to 1.82, the “Particle Size Distribution D10” value is listed as 39 μm, the “Particle Size Distribution D50” value is reported as 108 μm and the “Particle Size Distribution D90” value was 236 μm.

On to `CNC[C@@H]1OCCc2ccsc21.Cl` [API-9], for which the SPAN turned out to be 2.22, the “Particle Size Distribution D10” value is 10 μm, the “Particle Size Distribution D50” value is listed as 54 μm and the “Particle Size Distribution D90” value came to 130 μm.

Regarding `CNC[C@@H]1OCCc2ccsc21.Cl` [API-10], the SPAN is 1.90, the “Particle Size Distribution D10” value is reported as 33 μm, the “Particle Size Distribution D50” value stood at 106 μm and the “Particle Size Distribution D90” value is on record as 234 μm.

These data come from US20250270231A1, “ULOTARONT HYDROCHLORIDE MANUFACTURING PROCESS” (Sumitomo Pharma America, Inc., priority 2024, published 2025).
